Test results: ChEMBL document CHEMBL1143315, “Investigation of ketone warheads as alternatives to the nitrile for preparation of potent and selective cathepsin K inhibitors” (Bioorg Med Chem Lett, 2009)

How the values were obtained:
Homo sapiens [1] = organism: Homo sapiens; assay: Selectivity ratio of IC50 for human cathepsin L to IC50 for humanized rabbit cathepsin K
Homo sapiens [2] = organism: Homo sapiens; assay: Selectivity ratio of IC50 for human cathepsin S to IC50 for humanized rabbit cathepsin K
Homo sapiens [3] = organism: Homo sapiens; assay: Selectivity ratio of IC50 for human cathepsin B to IC50 for humanized rabbit cathepsin K
Rattus norvegicus = organism: Rattus norvegicus; assay: Metabolic stability in rat hepatocytes assessed as compound remaining after 2 hrs

Compound	Ratio IC50 (Homo sapiens [1])	Ratio IC50 (Homo sapiens [2])	Ratio IC50 (Homo sapiens [3])	remaining at 2 h (Rattus norvegicus)
CC(C)(F)C[C@H](N[C@@H](c1ccc(-c2ccc(S(C)(=O)=O)cc2)cc1)C(F)(F)F)C(=O)NC1CN(S(=O)(=O)c2ccccn2)CC1=O (some centres not stated)	118	27	118	15%
COC(=O)N1CC(=O)C(NC(=O)[C@H](CC(C)(C)F)N[C@@H](c2ccc(-c3ccc(S(C)(=O)=O)cc3)cc2)C(F)(F)F)C1 (some centres not stated)	604	304	637	11%
CCOC(=O)N1CC(=O)C(NC(=O)[C@H](CC(C)(C)F)N[C@@H](c2ccc(-c3ccc(S(C)(=O)=O)cc3)cc2)C(F)(F)F)C1 (some centres not stated)	861	185	215	20%
